ALDH1A1 inh = ALDH1A1 (human) enzyme inhibition. Purified ALDH1A1, NADH fluorescence, propionaldehyde substrate. Potency, µM (titrated, usually from 75.3 µM), for inactives: top-dose activity, negative = inhibition, actives largely listed as inhibitors. 220,000 tested, 7.3% active; active = well fitted inhibition curve with a large enough effect, not every such curve was filed as active; inconclusive = small, poorly fitted or top-dose-only effect, or another doubt; inactive = no such curve, though single readings can be large or run the other way;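 note: potency is the fitted concentration of half-maximal effect; plate controls were no enzyme wells and a reference inhibitor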
G9a block = inhibitors of human histone lysine methyltransferase G9a; 350,000 tested, 8.8% active; Potency, µM (highest dose often 102 µM), for the others: top-dose activity, negative = inhibition, most hits filed as inhibitors; G9a H3K9 monomethylation, AlphaScreen, 2 h; note: potency is the fitted concentration of half-maximal effect; % is set by controls: 0 for no effect and ±100 for the full control effect; nearly all actives have a fitted effect of over 75% in size
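Readings reflect AlphaScreen signal from monomethyl-H3K9 antibody detection. HMT at 20 nM; substrate b-H3K9 500 nM; cofactor SAM 20 uM; 2 h RT reaction; compounds tested as titrations in qHTS with 15 min preincubation.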
Sfp inh = blocks B. subtilis Sfp PPTase activity | Q9F4F7 | hit rate 3.5% among 310,000 | Potency, µM, without a hit: max response, negative = inhibition, most hits filed as inhibitors | AID 1490 | Biochemical Sfp PPTase activity, qHTS; active means well fitted inhibition curve with a large enough effect; inconclusive means small, poorly fitted or top-dose-only effect, or another doubt; inactive means no such curve, though single readings can be large or run the other way;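 further: the enzyme is Sfp with the accession as filed and its product quenches rhodamine fluorescence; potency means the concentration at half of the fitted maximal effect; 0% = enzyme reaction without inhibitor and -100% = no enzyme wells; top concentration of the series not given in the record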
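Fluorescence-quenching assay with 15 nM Sfp, 5 uM rhodamine-CoA and 12.5 uM BHQ-2-labelled ybbR peptide in pH 7.6 Hepes/MgCl2 buffer. Enzyme was pre-incubated with compound for 15 min at room temperature. Rate was taken from the 30-min fluorescence change (525/598 nm).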
KDM4E inh = blocks human JMJD2E demethylase activity | B2RXH2 | JMJD2E catalytic domain, FDH-coupled NADH fluorescence (FDH is formaldehyde dehydrogenase) | Potency, µM (titrated, usually from 57.1 µM), without a hit: at the top dose activity change, negative = inhibition, actives largely listed as inhibitors | 230,000 tested, 1.6% active; active = well fitted inhibition curve with a large enough effect, not every such curve was filed as active; inconclusive = small, poorly fitted or top-dose-only effect, or another doubt; inactive = no such curve, though single readings can be large or run the other way;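 note: potency is the fitted concentration of half-maximal effect; 0% = wells with enzyme and -100% = buffer wells without enzyme; nearly all actives have a fitted effect of over 50% in size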
LMNA splice mod = changes lamin A minigene splicing in HeLa cells; HeLa LMNA splicing GFP/RFP minigene ratio, 48 h; Potency, µM (highest dose often 46.1 µM), without a hit: top-dose ratio change, negative = inhibition, actives largely listed as inhibitors; 200,000 tested, 0.01% active; AID 1487; active = well fitted inhibition curve with a large enough effect in the signal ratio, with a control signal flat, not every such curve was filed as active; inconclusive = small, poorly fitted or top-dose-only effect, or effect the other way, or a change in a side signal; the % refers to the signal ratio; note: potency is the fitted concentration of half-maximal effect; % is set by controls: 0 for no effect and ±100 for the full control effect
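Read-out is the ratio of GFP to DsRed2 object intensity, acquired by 488 nm laser-scanning cytometry on HeLa lamin A-EGFP minigene reporter cells. Compound incubation 48 hrs at 37 °C in Opti-MEM with 2% FBS; DMSO 0.5% final.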
miR-21 reporter = raises the signal of a miR-21 reporter; 340,000 tested, under 10 active; HeLa miR-21 FLuc reporter, luciferase, 48 h; Potency, µM (series often up to 38.3 µM), for inactives: at the highest dose reporter change, positive = more light; active = well fitted rising curve with a large enough effect; inconclusive = small, poorly fitted or top-dose-only effect; inactive = no such curve, though single readings can be large or run the other way;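 further: % of control where 0% means no effect; miR-21 action dims this reporter so a rising signal means less miR-21 action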
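HeLa miR-21-FLuc reporter line, endogenous miR-21; 2000 cells/well in DMEM/10% FBS; compound titration up to ~40uM final, 48 h, 37 degree Celsius; luciferase detection reagent, 15 min lysis, CCD luminescence.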
* hit, by the source's call; [ ] = remark or other dose. The list is not random: actives were taken first. Their share in the collection is about 13%. Unless noted, calls come from the whole dose curve; as a rule, active = well fitted curve in the direction sought with a large enough effect; inconclusive = small, poorly fitted or top-dose-only effect, or another doubt; inactive = no such curve, though single readings can be large; an effect the other way counts as inactive or inconclusive.

Sample of the layout, 2 compounds:
CC(C)(C)C(=O)NC(=S)Nc1ccccc1C(=O)Nc1ccccc1 was read as ALDH1A1 inh 25µM*, G9a block 20%[0.501 µM], Sfp inh -2%, KDM4E inh -8%, LMNA splice mod 2% and miR-21 reporter -7%.
For CC(C)CC(=O)NC(=S)Nc1ccccc1C(=O)Nc1ccccc1 the results were ALDH1A1 inh 10µM*, G9a block inconclusive, Sfp inh 0%, KDM4E inh -4%, LMNA splice mod 4% and miR-21 reporter -11%.

The listing, repeating the preview:
CC(C)(C)C(=O)NC(=S)Nc1ccccc1C(=O)Nc1ccccc1 was read as ALDH1A1 inh 25µM*, G9a block 20%[0.501 µM], Sfp inh -2%, KDM4E inh -8%, LMNA splice mod 2% and miR-21 reporter -7%.
For CC(C)CC(=O)NC(=S)Nc1ccccc1C(=O)Nc1ccccc1 the results were ALDH1A1 inh 10µM*, G9a block inconclusive, Sfp inh 0%, KDM4E inh -4%, LMNA splice mod 4% and miR-21 reporter -11%.
Screening O=C(CC(NCCc1ccccc1)C(=O)O)Nc1ccc(O)cc1 (stereo not drawn) returned ALDH1A1 inh inconclusive, G9a block 22µM*, Sfp inh -24%, KDM4E inh -2%, LMNA splice mod -15% and miR-21 reporter -3%.
For CC(C)CC(=O)Nc1ccc(Nc2ccccc2)cc1 the results were ALDH1A1 inh 0%, G9a block 20µM*, Sfp inh 3%, KDM4E inh -2%, LMNA splice mod inconclusive and miR-21 reporter -31%.
For O=C(CC(c1ccccc1)c1ccccc1)Nc1ccc(O)cc1 the results were Sfp inh 5% and miR-21 reporter 0%.
For CC(C)CC(=O)Nc1ccc(Oc2ccc(NC(=O)CC(C)C)cc2)cc1 the results were ALDH1A1 inh 16%, G9a block 6%[59 µM], Sfp inh 24%, KDM4E inh -8%, LMNA splice mod -3% and miR-21 reporter -5%.
COCCn1c(C)cc(O)c(C(c2ccccc2OC)N2CCN(c3ccccc3)CC2)c1=O (stereo not drawn) was read as G9a block inconclusive, LMNA splice mod -4%[46 µM] and miR-21 reporter 3%.
Cc1ccc(C)c(N(CC(=O)NCc2ccco2)C(=O)CCC(=O)Nc2nccs2)c1 was read as G9a block inconclusive, Sfp inh 9% and miR-21 reporter 4%.
CC(NC(=O)Nc1cc(Cl)ccc1Cl)c1c(-n2cccc2)sc2c1CCCC2 (stereo not drawn) was read as G9a block -40%[59 µM] and miR-21 reporter -1%.
Screening O=C(O)c1cc([N+](=O)[O-])c(NCc2cccnc2)c([N+](=O)[O-])c1 returned ALDH1A1 inh inconclusive, G9a block 45µM*, Sfp inh -7%, KDM4E inh -2% and miR-21 reporter -2%.
For Cc1ccccc1C(=O)N1CCN(c2ccc([N+](=O)[O-])c(NCc3cccnc3)c2)CC1 the results were ALDH1A1 inh 16µM*, G9a block -13%, Sfp inh -7%, KDM4E inh -7%, LMNA splice mod inconclusive and miR-21 reporter -5%.
`Cc1ccc(C(=O)N2CCN(c3ccc([N+](=O)[O-])c(NCc4cccnc4)c3)CC2)cc1` gave ALDH1A1 inh 13µM*, G9a block inconclusive, Sfp inh -15%, KDM4E inh -5%, LMNA splice mod -8% and miR-21 reporter -1%.
Screening CS(=O)(=O)N1CCN(c2ccc([N+](=O)[O-])c(NCc3cccnc3)c2)CC1 returned ALDH1A1 inh -8%, Sfp inh -9%, KDM4E inh 2% and miR-21 reporter -7%.
CS(=O)(=O)N1CCN(c2ccc([N+](=O)[O-])c(NCc3ccccc3)c2)CC1 was read as ALDH1A1 inh -11%, G9a block -33%[12.7 µM], Sfp inh 2%, KDM4E inh 1%, LMNA splice mod 16% and miR-21 reporter -30%.
For O=C(c1ccccc1F)N1CCN(c2ccc([N+](=O)[O-])c(NCC3CCCO3)c2)CC1 (stereo not drawn) the results were ALDH1A1 inh 11µM*, G9a block -47%, Sfp inh 13%, KDM4E inh 6%, LMNA splice mod inconclusive and miR-21 reporter 2%.
Screening O=C(Nc1ccccc1)c1cc([N+](=O)[O-])ccc1NCc1cccnc1 returned ALDH1A1 inh 0%, G9a block inconclusive, Sfp inh inconclusive, KDM4E inh 5%, LMNA splice mod 1% and miR-21 reporter -1%.
For O=C(Nc1ccc(N2CCOCC2)cc1N1CCOCC1)c1cccc([N+](=O)[O-])c1 the results were G9a block -4%, Sfp inh 5% and miR-21 reporter -3%.
For CNC(=S)NC1(C)CCS(=O)(=O)C1 (stereo not drawn) the results were G9a block 13%, Sfp inh 19%, KDM4E inh 5% and miR-21 reporter 3%.
COc1ccc(NC(=O)CSc2nc3nc(C)cc(C)n3n2)cc1 was read as G9a block 13%, Sfp inh 16%, LMNA splice mod -7%[46 µM] and miR-21 reporter -5%.
Screening COC(=O)c1ccccc1NC(=O)c1nc2nc(C)cc(C)n2n1 returned ALDH1A1 inh inconclusive, G9a block -3%[12.7 µM], Sfp inh 7%, KDM4E inh 0%, LMNA splice mod -2% and miR-21 reporter -2%.
Screening COc1ccc(NC(=O)c2ccc(NC(=O)c3nc4nc(C)cc(C)n4n3)cc2)cc1 returned G9a block 35µM*.
`Cc1cc(C)n2nc(C(=O)NNC(=O)c3ccccc3)nc2n1` gave ALDH1A1 inh -1%, G9a block 14µM*, Sfp inh 79µM*, KDM4E inh 7%, LMNA splice mod -2%[46 µM] and miR-21 reporter 0%.
Cc1ccc(C(C)C)c(OCc2ccc(-c3nnco3)cc2)c1 was read as ALDH1A1 inh -12%, G9a block -18%[12.7 µM], Sfp inh 50µM*, KDM4E inh -12%, LMNA splice mod inconclusive and miR-21 reporter -2%.
For Cc1ccc(COc2ccc(-c3nnco3)cc2)cc1 the results were G9a block 15%, Sfp inh 5% and miR-21 reporter -63%.
For COc1cc(CC(=O)NCC(C)(C)N2CCOCC2)cc(OC)c1OC the results were G9a block 50µM*, Sfp inh 20% and miR-21 reporter -1%.
For OC(CN1CCC(Cc2ccc(F)cc2)CC1)c1ccc(Cl)cc1 (stereo not drawn) the results were ALDH1A1 inh 9%, G9a block 6%[59 µM], Sfp inh 18%, KDM4E inh 6% and LMNA splice mod inconclusive.
CCCCOC(=O)Sc1nc2ccccc2o1 was read as ALDH1A1 inh inconclusive, G9a block 25µM*, Sfp inh 40µM*, KDM4E inh 2%, LMNA splice mod inconclusive and miR-21 reporter -32%.
For COc1ccc(Cl)cc1NC(=O)CN1CCN(Cc2ccccc2)CC1 the results were G9a block -12%[0.501 µM], Sfp inh 9% and miR-21 reporter -5%.
`Brc1ccc(-c2cnnc(N3CCCC3)n2)cc1` gave ALDH1A1 inh inconclusive, G9a block 71µM*, Sfp inh -30%, KDM4E inh 0%, LMNA splice mod -19% and miR-21 reporter -20%.

Two consecutive entries from above:
CCCCOC(=O)Sc1nc2ccccc2o1 was read as ALDH1A1 inh inconclusive, G9a block 25µM*, Sfp inh 40µM*, KDM4E inh 2%, LMNA splice mod inconclusive and miR-21 reporter -32%.
For COc1ccc(Cl)cc1NC(=O)CN1CCN(Cc2ccccc2)CC1 the results were G9a block -12%[0.501 µM], Sfp inh 9% and miR-21 reporter -5%.
